The target of experiment [1] is human μ opioid receptor (Homo sapiens, UniProt P35372). The experiment is described as follows: Opioid receptor binding assay, [3H]DAMGO (μ).
Experiment [2] has as its target human κ opioid receptor (Homo sapiens, UniProt P41145). The experiment is described as follows: biochemical.

Chains of the proteins cited; added tags and fusions are not shown. Lines headed by an entry give the natural chain unless they say otherwise; changes in a name come on top.
UniProt P35372, whole entry: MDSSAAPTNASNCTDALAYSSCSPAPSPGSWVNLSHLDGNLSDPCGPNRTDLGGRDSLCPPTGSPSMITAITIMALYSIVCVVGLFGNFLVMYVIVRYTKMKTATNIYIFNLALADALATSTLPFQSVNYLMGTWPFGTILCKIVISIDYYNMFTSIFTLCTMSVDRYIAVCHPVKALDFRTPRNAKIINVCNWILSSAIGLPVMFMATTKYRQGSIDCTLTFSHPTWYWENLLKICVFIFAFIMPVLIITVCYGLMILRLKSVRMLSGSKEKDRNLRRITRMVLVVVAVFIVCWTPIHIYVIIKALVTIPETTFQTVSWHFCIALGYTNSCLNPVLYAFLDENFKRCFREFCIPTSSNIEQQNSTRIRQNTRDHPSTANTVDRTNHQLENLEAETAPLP
UniProt P41145: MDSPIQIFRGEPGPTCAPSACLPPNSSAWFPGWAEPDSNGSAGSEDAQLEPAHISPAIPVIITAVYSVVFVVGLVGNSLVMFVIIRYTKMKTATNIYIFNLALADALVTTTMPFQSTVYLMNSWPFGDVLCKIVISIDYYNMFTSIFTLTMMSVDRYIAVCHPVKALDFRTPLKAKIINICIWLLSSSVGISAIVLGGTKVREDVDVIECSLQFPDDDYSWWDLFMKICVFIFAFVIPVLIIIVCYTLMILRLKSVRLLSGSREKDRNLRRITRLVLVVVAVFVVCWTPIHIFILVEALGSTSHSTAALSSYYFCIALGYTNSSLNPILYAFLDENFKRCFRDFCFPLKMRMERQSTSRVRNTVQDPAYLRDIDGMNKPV

A word on the Ki: it is a measure of affinity in units of concentration, obtained from inhibition or displacement. A higher Ki goes with weaker binding. For the compound `CC1C2Cc3ccc(C(=O)NCCc4ccc(-c5ccc(O)cc5)cc4)cc3C1(C)CCN2CC1CC1` (racemic) [Compound 1], the Ki in experiment [1] amounted to 0.0056 ± 0.00073 nM.

As to `CCOc1ccc(-c2ccc(CCNC(=O)c3ccc4c(c3)C3(C)CCN(CC5CC5)C(C4)C3C)cc2)cc1` (racemic) [Compound 4], the Ki in experiment [1] was found to be 0.64 ± 0.058 nM.

In turn, `CC(C)Oc1ccccc1-c1ccc(CCNC(=O)c2ccc3c(c2)C2(C)CCN(CC4CC4)C(C3)C2C)cc1` (racemic) [Compound 7] showed a Ki in experiment [1] of 0.12 ± 0.0018 nM. Against the preceding compound, the Ki is about 5.3-fold lower.

`CC1C2Cc3ccc(C(=O)NCCc4ccc(-c5ccc(O)cc5)cc4)cc3C1(C)CCN2CC1CC1` (single isomer, unassigned) [Compound 1A] registered a Ki in experiment [1] of 0.0049 ± 0.001 nM.

In the case of `CC1C2Cc3ccc(C(=O)NCCc4ccc(-c5ccccc5)cc4)cc3C1(C)CCN2CC1CC1` (single isomer, unassigned) [Reference (+), reference compound], in experiment [2], the inhibition constant (Ki) worked out at 8.5 ± 1.07 nM.

(Values after patent US8957085B2, “Carboxamide bioisosteres of opiates” (Rensselaer Polytechnic Institute, priority 2010, dated 2015).)
